Paper PMC9798004 (Frontiers in Psychiatry, 2022)

Amino acid sequences for entries named in this document (tags omitted). A change or cut given only in a name is not applied to a line headed by its entry. Residues count along the entry.
UniProt P41146: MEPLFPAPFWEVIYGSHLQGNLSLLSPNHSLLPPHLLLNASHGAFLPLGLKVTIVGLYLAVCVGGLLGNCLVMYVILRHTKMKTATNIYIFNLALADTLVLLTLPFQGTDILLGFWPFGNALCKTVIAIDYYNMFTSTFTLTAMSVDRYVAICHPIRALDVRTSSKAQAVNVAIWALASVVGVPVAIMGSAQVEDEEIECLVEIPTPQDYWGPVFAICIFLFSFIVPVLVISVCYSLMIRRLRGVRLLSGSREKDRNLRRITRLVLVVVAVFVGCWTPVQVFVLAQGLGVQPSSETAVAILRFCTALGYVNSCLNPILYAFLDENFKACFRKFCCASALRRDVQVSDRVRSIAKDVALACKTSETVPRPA
UniProt P41143, whole entry: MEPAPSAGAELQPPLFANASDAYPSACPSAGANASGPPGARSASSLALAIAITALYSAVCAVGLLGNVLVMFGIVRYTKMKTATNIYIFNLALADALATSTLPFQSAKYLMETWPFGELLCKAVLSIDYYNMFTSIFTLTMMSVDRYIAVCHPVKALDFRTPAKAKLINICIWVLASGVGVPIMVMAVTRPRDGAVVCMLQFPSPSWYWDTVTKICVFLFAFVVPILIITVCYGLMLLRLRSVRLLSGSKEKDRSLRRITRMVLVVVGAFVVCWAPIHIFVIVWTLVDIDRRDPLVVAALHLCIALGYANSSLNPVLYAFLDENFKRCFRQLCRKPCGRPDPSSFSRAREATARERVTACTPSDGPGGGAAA
UniProt P32241, 31-457: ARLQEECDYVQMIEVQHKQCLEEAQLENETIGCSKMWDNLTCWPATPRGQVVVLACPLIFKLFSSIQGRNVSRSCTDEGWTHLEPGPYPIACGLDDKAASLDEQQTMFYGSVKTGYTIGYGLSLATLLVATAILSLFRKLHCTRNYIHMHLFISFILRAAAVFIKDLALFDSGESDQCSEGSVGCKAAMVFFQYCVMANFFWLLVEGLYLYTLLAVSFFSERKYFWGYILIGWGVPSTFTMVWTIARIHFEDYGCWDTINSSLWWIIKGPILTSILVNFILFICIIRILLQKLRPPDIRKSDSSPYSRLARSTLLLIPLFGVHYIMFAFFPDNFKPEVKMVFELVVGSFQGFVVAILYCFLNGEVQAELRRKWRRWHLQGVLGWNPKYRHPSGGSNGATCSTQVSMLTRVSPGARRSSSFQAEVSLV
UniProt P35414: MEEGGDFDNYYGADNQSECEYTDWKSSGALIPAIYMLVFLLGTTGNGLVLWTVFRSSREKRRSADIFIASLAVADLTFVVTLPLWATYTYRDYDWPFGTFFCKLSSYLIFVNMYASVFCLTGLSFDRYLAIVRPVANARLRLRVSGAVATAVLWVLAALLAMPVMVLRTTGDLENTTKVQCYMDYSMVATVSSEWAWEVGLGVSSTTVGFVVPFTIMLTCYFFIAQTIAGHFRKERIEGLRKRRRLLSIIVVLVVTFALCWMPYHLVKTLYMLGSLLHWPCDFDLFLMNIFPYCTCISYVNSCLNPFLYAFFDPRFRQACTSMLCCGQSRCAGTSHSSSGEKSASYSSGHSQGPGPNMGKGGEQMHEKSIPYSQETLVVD

Tests used:
Conditions in all cases: screen, control agonist; CHO, RT, 2HR
OPRL1 = OPRL1 (Homo sapiens, UniProt P41146)
OPRD1 = OPRD1 (Homo sapiens, UniProt P41143)
VIPR1 = VIPR1 (Homo sapiens, UniProt P32241)
AGTRL1 = AGTRL1 (Homo sapiens, UniProt P35414)

Substance: Orphanin FQ
- EC80 (OPRL1): 17.2 nM

Substance: DADLE
- EC80 (OPRD1): 7.54 nM

Substance: VIP: control agonist for VIPR1 and VIPR2
- EC80 (VIPR1): 3.7 nM

Substance: Apelin-13
- EC80 (AGTRL1): 2.28 nM
